From ChEMBL document CHEMBL1124705, “Renin inhibitors containing isosteric replacements of the amide bond connecting the P3 and P2 sites” (J Med Chem, 1990)

Sequences of proteins named here, by UniProt entry; tags and fusion partners are left off. A change or cut given only in a name is not applied to a line headed by its entry.
UniProt P00797: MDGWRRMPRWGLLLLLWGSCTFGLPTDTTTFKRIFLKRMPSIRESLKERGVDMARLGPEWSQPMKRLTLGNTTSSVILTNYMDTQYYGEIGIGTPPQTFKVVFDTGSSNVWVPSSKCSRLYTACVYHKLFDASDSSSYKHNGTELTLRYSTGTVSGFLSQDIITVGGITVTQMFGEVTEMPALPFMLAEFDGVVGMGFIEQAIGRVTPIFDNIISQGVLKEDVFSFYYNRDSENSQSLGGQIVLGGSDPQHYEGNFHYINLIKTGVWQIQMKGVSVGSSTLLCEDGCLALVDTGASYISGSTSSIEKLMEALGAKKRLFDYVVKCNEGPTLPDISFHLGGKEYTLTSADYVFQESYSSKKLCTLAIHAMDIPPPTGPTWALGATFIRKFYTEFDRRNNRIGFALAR

Target: Renin (Homo sapiens, UniProt P00797)
Test: Inhibitory activity against human renin
In short: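 It was incubated 2 h at 37 °C with compound added in DMSO. Angiotensin I generated, linear over this period, was corrected for endogenous AI and expressed as percent of DMSO control. IC50 was estimated from semilog plots of three or more concentrations.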

CC(C)C[C@H](NC(=O)C[C@@H](O)C(Cc1ccccc1)NC(=O)[C@H](Cc1c[nH]cn1)NC[C@H](Cc1ccccc1)NC(=O)OC(C)(C)C)C(=O)NCc1ccccc1 (stereo partly specified)
IC50: 3.8 µM
